# From PMC3361267 (Journal of Medicinal Chemistry, 2012)
# The chains behind the UniProt entries cited, without tags or fusion partners. Where a name states a change or a piece, a line headed by the entry shows the natural chain unless it says otherwise.
# UniProt Q9NPD5: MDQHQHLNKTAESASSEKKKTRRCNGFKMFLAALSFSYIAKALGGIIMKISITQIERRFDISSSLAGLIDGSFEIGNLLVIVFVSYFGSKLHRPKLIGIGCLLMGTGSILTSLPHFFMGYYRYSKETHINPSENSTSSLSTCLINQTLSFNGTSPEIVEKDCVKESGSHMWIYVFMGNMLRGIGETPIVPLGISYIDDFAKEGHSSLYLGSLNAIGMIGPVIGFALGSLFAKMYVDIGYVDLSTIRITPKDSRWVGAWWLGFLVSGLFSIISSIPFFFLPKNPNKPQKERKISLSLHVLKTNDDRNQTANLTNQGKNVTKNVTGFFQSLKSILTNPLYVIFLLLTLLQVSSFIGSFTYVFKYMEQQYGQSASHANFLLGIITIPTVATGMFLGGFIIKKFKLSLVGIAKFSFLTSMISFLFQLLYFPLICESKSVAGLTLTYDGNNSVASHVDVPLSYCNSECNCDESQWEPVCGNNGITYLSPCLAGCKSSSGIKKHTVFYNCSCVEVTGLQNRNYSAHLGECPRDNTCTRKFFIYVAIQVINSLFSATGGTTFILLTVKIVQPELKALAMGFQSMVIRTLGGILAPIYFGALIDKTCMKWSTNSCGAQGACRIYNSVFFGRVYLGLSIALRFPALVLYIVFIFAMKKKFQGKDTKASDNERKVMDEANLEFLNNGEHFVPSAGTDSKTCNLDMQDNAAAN
# Target: OATP1B3 (Homo sapiens, UniProt Q9NPD5)
substance,measurement,value
Olmesartan,OATP1B3 Inhib %,37.0%
